Here are results for four compounds from ChEMBL document CHEMBL1126679 (J Med Chem, 1993).

Amino acid sequences for entries named in this document (tags omitted).
UniProt P61169, whole entry: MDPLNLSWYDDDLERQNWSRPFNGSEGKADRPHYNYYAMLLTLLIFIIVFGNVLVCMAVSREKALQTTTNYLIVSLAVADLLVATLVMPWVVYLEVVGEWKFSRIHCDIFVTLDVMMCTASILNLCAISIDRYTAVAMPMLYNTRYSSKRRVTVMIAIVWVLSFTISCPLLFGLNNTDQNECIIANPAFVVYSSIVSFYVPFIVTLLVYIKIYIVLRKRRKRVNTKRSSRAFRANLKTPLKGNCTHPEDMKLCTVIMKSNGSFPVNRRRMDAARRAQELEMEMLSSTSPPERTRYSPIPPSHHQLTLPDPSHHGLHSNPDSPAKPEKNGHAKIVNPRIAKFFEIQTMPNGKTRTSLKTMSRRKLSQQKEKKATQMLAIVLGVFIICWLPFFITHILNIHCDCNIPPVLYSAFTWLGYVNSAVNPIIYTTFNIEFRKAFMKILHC

The target of assay [1] is D(2) dopamine receptor (Rattus norvegicus, UniProt P61169). The assay can be described thus: Compound was tested for antagonistic activity against D2 receptor from rat striatum, used [3H]raclopride as radioligand. In kind it is functional.
Assay [2] can be described thus: Binding affinity against 5-hydroxytryptamine 1A receptor from bovine hippocampus, used [3H]8-OH-DPAT as radioligand.

The Ki is the dissociation constant of the complex between target and ligand, obtained from inhibition or displacement. Read a high Ki as a looser hold on the target. On to `C=CCN1CC[C@H]2c3c(cccc3OC)CC[C@H]21`, for which the Ki in assay [1] was determined as 5.3 nM. Regarding `CCCN1CC[C@H]2c3c(O)cccc3CC[C@H]21`, the affinity in assay [2], expressed as Ki, was 0.1 nM. This lies in the sub-nanomolar range. In assay [1], `C=CCN1CCC2c3c(cccc3OC)CCC21` (racemic) displayed a Ki of 13 nM.

`C=CCN1CC[C@H]2c3c(cccc3OC)CC[C@H]21` (single isomer, unassigned) had a Ki in assay [1] of 270 nM.
